These results are taken from patent US20120122956A1, “METHODS FOR INHIBITING AN[…] MULTI-ARM POLYMERIC CONJUGATES OF 7-ETHYL-10-HYDROXYCAMPTOTHECIN” (ENZON PHARMACEUTICALS, INC., priority 2009, published 2012).

Like-named read-outs stand apart in the source and are kept apart here.

A short description of series [1]: Pharmacokinetics in tumor free Balb/C mice. It counts as in vivo. The procedure: Tumor free Balb/C mice were injected with a single injection of 20 mg/kg 4armPEG-Gly-(7-ethyl-10-hydroxycamptothecin) conjugates. At various time points mice were sacrificed and plasma was analyzed for intact conjugates and released 7-ethyl-10-hydroxycamptothecin by HPLC. Pharmacokinetic analysis was done using non-compartmental analysis (WinNonlin).

Another series in a line: Pharmacokinetics in rats. It counts as in vivo. The method, then:
Additionally, pharmacokinetic profiles of 4arm PEG-Gly-(7-ethyl-10-hydroxycamptothecin) were investigated in rats. In rats, dose levels of 3, 10 and 30 mg/kg (7-ethyl-10-hydroxycamptothecin equivalent) were used. The pharmacokinetic profiles in rats were consistent with those of mice.

For series [2] the following is noted: buffer, varying pH (FIG. 7).
[3] abbreviates: intact conjugate in plasma, single injection 20 mg/kg.
Where [4] appears, read: parent compound (conjugate), rats.

“^40k4arm-PEG-Gly(20)-(7-ethyl-10-hydroxycamptothecin) [Compound 9]”: the Enterohepatic circulation entry in series [1] (conjugate, mice) was “observed”. In series [1] (conjugate, mice, biphasic profile), this substance displayed a terminal elimination half-life of 18 to 22 h. Further, in series [1] (setting [3]), the AUC is recorded as 124,000 h*μg/mL. The substance further returned a CL in series [1] (setting [3]) of 5.3 mL/h/kg. The Cmax in series [1] (setting [3]) was 20,500 μg/mL. Further, in series [1] (setting [3]), the “Terminal t1/2” value turned out to be 19.3 h. For the same substance, the volume of distribution (Vss) (in general, the apparent volume that relates the amount in the body to the concentration in plasma or blood) in series [1] (setting [3]) came out at 0.131 L/kg. Besides, the MTD was 10 mg/kg (multiple dose (q2d×5)) and 30 mg/kg (single dose). In addition, the Survival/Total is given as 5/5 (multiple dose, 10 mg/kg every other day for 10 days, 14 days total); 3/5 (multiple dose, 15 mg/kg every other day for 10 days, 14 days total); 0/5 (multiple dose, 20 mg/kg every other day for 10 days, 14 days total); 5/5 (single dose, 25 mg/kg, monitored 14 days); 5/5 (single dose, 30 mg/kg, monitored 14 days); 4/5 (single dose, 35 mg/kg, monitored 14 days). In addition, the elimination half life in “Pharmacokinetics in rats” (conjugate, rats, 3, 10 and 30 mg/kg, biphasic clearance) fell in the range of 12 to 18 h. Moreover, in “Pharmacokinetics in rats” (setting [4]), the clearance – broadly, the rate of elimination divided by the concentration – was determined as 0.35 mL/h/kg. Moreover, the “estimated volume of distribution at steady state (Vss)” value in the series “Pharmacokinetics in rats” (setting [4]) was 0.00549 L/kg. For the same substance, in series [2], the “rate of 7-ethyl-10-hydroxycamptothecin release” value is listed as “increases with increased pH”.
